We go through three compounds from BindingDB's records for doi:10.1002/(SICI)1098-2396(199702)25:2 (University of Toronto, 1997).

Amino acid sequences for entries named in this document (tags omitted).
UniProt P61169, whole entry: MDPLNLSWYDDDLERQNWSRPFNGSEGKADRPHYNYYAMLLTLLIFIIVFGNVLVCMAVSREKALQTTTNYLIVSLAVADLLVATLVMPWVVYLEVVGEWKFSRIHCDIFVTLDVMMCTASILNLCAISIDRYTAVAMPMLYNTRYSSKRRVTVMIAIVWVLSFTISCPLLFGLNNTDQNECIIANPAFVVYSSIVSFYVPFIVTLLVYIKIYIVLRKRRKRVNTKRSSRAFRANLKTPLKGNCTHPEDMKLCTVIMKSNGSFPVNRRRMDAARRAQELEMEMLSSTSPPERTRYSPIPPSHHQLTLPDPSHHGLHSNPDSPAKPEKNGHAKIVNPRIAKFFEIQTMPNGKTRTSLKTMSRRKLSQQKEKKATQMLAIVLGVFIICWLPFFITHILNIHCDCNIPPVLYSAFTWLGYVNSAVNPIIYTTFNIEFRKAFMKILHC

Counter-ions that a name gives are not always drawn. A value given as a limit tells only on which side of the number the result lay.

Broadly, the Ki is a measure of affinity in units of concentration, obtained from inhibition or displacement. A low value points to tighter binding.

This assay addresses D(2) dopamine receptor (Rattus norvegicus, UniProt P61169).
`CCN(CC)CCNC(=O)c1cc(Cl)c(N)cc1OC` [4-amino-5-chloro-N-[2-(diethylamino)ethyl]-2-methoxy-benzamide;hydrochloride] registered a Ki of 0.035 µM.
Then `CN1CCc2cccc3c2[C@H]1Cc1ccc(O)c(O)c1-3` [APOKYN], with 1.27 µM; and `NCCc1c[nH]c2ccc(O)cc12` [[3H]-5-HT], with more than 10 µM.
